Like-named read-outs stand apart in the source and are kept apart here.
Columns and labels:
influenza A polymerase [1] = molecular target: T1, influenza A polymerase (Influenza A virus, UniProt P15659); test: cell-based; design: species or system influenza A/WSN/33 H1N1
influenza A polymerase [2] = molecular target: T1, influenza A polymerase; test: cell-based; design: species or system influenza A/WSN/33 H1N1; remark: listed apart in the source

COC(=O)OCOc1c2n(ccc1=O)N([C@@H]1c3ccccc3SCc3c1ccc(F)c3F)[C@@H]1COCCN1C2=O [BMX, baloxavir marboxil, reference compound]
EC50 (influenza A polymerase [1]): 4 ± 1 nM | EC50 (influenza A polymerase [2]): 2 ± 0.6 nM

From publication PMC12154555, “Beyond natural flavonoids: exploring bioisosterism in design and synthesis of influenza endonuclease inhibitors” (RSC Medicinal Chemistry, 2025)
